Data on 1 molecule can be found in ChEMBL document CHEMBL1130059, “Neurotrophic 3,9-bis[(alkylthio)methyl]-and-bis(alkoxymethyl)-K-252a derivatives” (J Med Chem, 1997).

Each structure is given as a SMILES string.

The experiment addresses Protein kinase C (PKC). Description: Inhibition of Protein kinase C of Rat brain.

By IC50 is commonly meant the midpoint of a concentration-inhibition curve. High values mean weaker potency, low ones greater potency. For the molecule `COC(=O)[C@@]1(O)C[C@H]2O[C@]1(C)n1c3ccccc3c3c4c(c5c6ccccc6n2c5c31)C(=O)NC4` [K-252A], the IC50 turned out to be 0.028 nM.
